Like-named read-outs stand apart in the source and are kept apart here.

Sequences of proteins named here, by UniProt entry; tags and fusion partners are left off. Residues count along the entry.
UniProt P98170, 241-356: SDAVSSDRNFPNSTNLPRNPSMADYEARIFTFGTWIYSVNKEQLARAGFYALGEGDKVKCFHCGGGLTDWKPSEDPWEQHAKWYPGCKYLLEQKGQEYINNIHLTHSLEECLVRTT
UniProt P98170, 124-240 C202A/C213G: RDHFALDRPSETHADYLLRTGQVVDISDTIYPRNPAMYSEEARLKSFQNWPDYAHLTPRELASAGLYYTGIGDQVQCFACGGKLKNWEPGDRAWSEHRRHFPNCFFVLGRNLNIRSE

Test [1] deals with T1, XIAP-BIR3 (Homo sapiens, UniProt P98170).
T1 construct: X-IAP BIR3 (amino acids residues 241-356); made in house; host or cells: Escherichia coli BL21 (DE3)
The test can be described thus: fluorescence polarization competition assay, XIAP-BIR3. In kind it is binding. The procedure:
(§1) The apparent Kd values can be determined from the EC50 values.
(§2) The vectors pET15b-XIAPBIR2C202AC218G, pET15b-XIAPBIR3, and pET15b-MLIAPBIR were introduced into Escherichia coli strain BL21 (DE3). Overnight cultures were diluted 1:100 and grown at 30° C. in LB media with […] to an A600 of 0.5-0.7 with vigorous shaking. Isopropyl b-D-thiogalactoside (IPTG) was added to a final concentration of 1 mM and cultures were grown for 4 hours at 30° C. One litre of frozen cell pellet was resuspended in 100 ml Buffer A (50 mM Tris [pH 8.0], 300 mM NaCl, 5 mM b-mercaptoethanol, 0.5 mM PMSF, 2 mM benzamidine) with 5 mM imidazole and placed on ice for 30 minutes. Cells were lysed by homogenizing followed by repeated passes through a microfluidizer. Lysate was cleared by centrifugation at 15,000 rpm for 30 minutes. The supernatant was loaded onto a Ni-agarose column (Qiagen), washed with 10 column volumes Buffer A with 10 mM imidazole, and eluted with 10 column volumes Buffer A with 300 mM imidazole. Fractions containing BIR protein were pooled. Final concentrations of 5 mM DTT and 100 mM zinc acetate were added. The pool was concentrated and loaded on a Superdex 75™ (Pharmacia) sizing column. Protein eluted over one column volume into 50 mM Tris 8.0, 300 mM NaCl, 0.5 mM PMSF, 2 mM benzamidine, 5 mM DTT, 50 mM zinc acetate, 1 mM sodium azide. Fractions containing BIR protein were pooled and dialyzed against 4 changes of buffer containing 50 mM Tris (pH 8.0), 120 mM NaCl, 5 mM DTT, 0.5 mM PMSF, 2 mM benzamidine, 50 mM zinc acetate, 1 mM sodium azide. Protein was concentrated and stored at −80° C. for further characterization.
(§3) The apparent Kd values were determined from the EC50 values. […] Samples were read after a 10-minute incubation.
In general terms: Polarisation of emitted light reports the rotation of a fluorescent probe.

In test [2] the target is T2, XIAP-BIR2 (Homo sapiens, UniProt P98170, C202A/C213G).
T2 construct: X-IAP BIR2 (amino acid residues 124-240 with mutations C202A and C213G); made in house; host or cells: Escherichia coli BL21 (DE3)
The experiment in a line: fluorescence polarization competition assay, XIAP-BIR2. In kind it is binding. The procedure:
as §1
as §2, with “Protein eluted over one column volume into 50 mM Tris 8.0, 300 mM NaCl, 0.5 mM PMSF, 2 mM benzamidine, 5 mM DTT, 50 mM zinc acetate, 1 mM sodium azide. Fractions containing BIR protein were pooled and dialyzed against 4 changes of buffer containing 50 mM Tris (pH 8.0), 120 mM NaCl, 5 mM DTT, 0.5 mM PMSF, 2 mM benzamidine, 50 mM zinc acetate, 1 mM sodium azide. Protein was concentrated and stored at −80° C. for further characterization.” left out
as §3

In test [3] the target is T3, ML-IAP-BIR (Homo sapiens, UniProt Q96CA5).
T3 construct: made in house; host or cells: Escherichia coli BL21 (DE3)
T3 sequence (Q96CA5 63-179): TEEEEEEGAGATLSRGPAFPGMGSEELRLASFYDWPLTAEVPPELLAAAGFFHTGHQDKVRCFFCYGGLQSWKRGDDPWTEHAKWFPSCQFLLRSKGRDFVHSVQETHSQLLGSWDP
The test can be described thus: fluorescence polarization competition assay, ML-IAP-BIR. To be noted: for specificity for ML-IAP-BIR relative to XIAP-BIR3, in words: substitution at position 4′. In kind it is binding. The procedure: as §1, §2, §3

Test [4] has as its target T4, ML-IAP-BIR (human, UniProt Q96CA5 63-179).
T4 construct: range 63-179; Expressed in E. coli from pET15b and purified on Ni-agarose; also called BIR domain of ML-IAP
T4 sequence (looked up): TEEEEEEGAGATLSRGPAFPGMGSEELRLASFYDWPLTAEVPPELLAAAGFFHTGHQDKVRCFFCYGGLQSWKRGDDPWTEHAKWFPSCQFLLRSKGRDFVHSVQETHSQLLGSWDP
The experiment in a line: fluorescence polarization, BIR protein titrated into the probe; apparent Kd from EC50.

Test [5] concerns the target T5, XIAP-BIR3 (human, UniProt P98170 241-356).
T5 construct: range 241-356; Expressed in E. coli from pET15b and purified on Ni-agarose
Described as above.

In test [6] the target is T6, XIAP-BIR2 (human, UniProt P98170 124-240).
T6 construct: range 124-240; The text says C213G, the vector name reads pET15b-XIAPBIR2C202AC218G; Expressed in E. coli from pET15b
The test can be described thus: fluorescence polarization competition, SMAC-FAM or Hid-FAM probe.

The target in test [7] is T4, ML-IAP-BIR. The description is as above.
The target of test [8] is T5, XIAP-BIR3. Described as above.
The target of test [9] is T4, ML-IAP-BIR. The test can be described thus: fluorescence polarization competition, SMAC-FAM probe.
Test [10] addresses T6, XIAP-BIR2. The description is as above.
Test [11] has as its target T5, XIAP-BIR3. The description is as above.
The mark [12] stands for this setting: Table 4, P4 amino acid/phenylethylamine scan, Hid-FAM probe.

For `CC(C)[C@H](NC(=O)[C@H](C)N)C(=O)N1CCC[C@H]1C(=O)NCCc1cccc(Cl)c1` [AVPX39], at XIAP-BIR3 [1] (setting [12]), the Ki is 0.68 µM.
On to `CC(C)[C@H](NC(=O)[C@H](C)N)C(=O)N1CCC[C@H]1C(=O)N[C@@H](Cc1ccccc1)C(=O)O` [AVPF], for which the Ki was 6.5 µM at XIAP-BIR2 [2] (setting [12]) and 0.22 µM at XIAP-BIR3 [1] (setting [12]).
Take `CC(C)[C@H](NC(=O)[C@H](C)NC(=O)[C@@H](NC(=O)[C@@H](NC(=O)[C@H](CCC(=O)O)NC(=O)[C@H](C)N)C(C)C)C(C)C)C(=O)N[C@@H](CCCCN)C(=O)N[C@@H](CO)C(=O)N[C@@H](CCC(=O)O)C(=O)O`: the Ki at XIAP-BIR2 [2] is 15 µM; on XIAP-BIR3 [1] it was > 64 µM; on ML-IAP-BIR [3], 4.4 µM.
Consider `CC(C)[C@H](NC(=O)[C@H](C)N)C(=O)N1CCC[C@H]1C(=O)N[C@@H](CCc1ccccc1)C(=O)N[C@@H](C)C(=O)N[C@@H](CCC(N)=O)C(=O)N[C@@H](CCCCN)C(=O)N[C@@H](CO)C(=O)N[C@@H](CCC(=O)O)C(=O)O` [AVPX12AQKSE], for which the “specificity for ML-IAP-BIR relative to XIAP-BIR3” value on ML-IAP-BIR [3] (ratio of Ki) is reported as ~7 fold.
On to `COC[C@H](Cc1ccccc1)NC(=O)[C@@H]1CCCN1C(=O)[C@@H](NC(=O)[C@H](C)N)C(C)C` [AVPX38], for which the Ki at XIAP-BIR3 [1] (setting [12]) was 0.46 µM.
At XIAP-BIR3 [1] (setting [12]), `CC(C)[C@H](NC(=O)[C@H](C)N)C(=O)N1CCC[C@H]1C(=O)N[C@@H](CO)[C@@H](O)c1ccccc1` [AVPX25] returned a Ki of 7.2 µM. Against the preceding molecule, the Ki is about 16-fold higher.
Take `CC(C)[C@H](NC(=O)[C@H](C)N)C(=O)N1CCC[C@H]1C(=O)N[C@@H]1C[C@H]1c1ccccc1` [AVPX28a]: at ML-IAP-BIR [3], the “specificity for ML-IAP-BIR relative to XIAP-BIR3, in words” value was “improved specificity”.
Consider `CC(C)[C@H](NC(=O)[C@H](C)N)C(=O)N1CCC[C@H]1C(=O)N[C@@H](Cc1ccc(N)cc1)C(=O)N[C@@H](C)C(=O)N[C@@H](CCC(N)=O)C(=O)N[C@@H](CCCCN)C(=O)N[C@@H](CO)C(=O)N[C@@H](CCC(=O)O)C(=O)O` [AVPX4AQKSE], for which the “specificity for ML-IAP-BIR relative to XIAP-BIR3, in words” value at ML-IAP-BIR [3] was “improved specificity”.
In the case of `CC(C)[C@H](NC(=O)[C@H](C)N)C(=O)N1CCC[C@H]1C(=O)NC[C@H](O)c1ccccc1` [AVPX33], the inhibition constant (Ki) on XIAP-BIR3 [1] (setting [12]) was found to be 0.85 µM.
The molecule `COc1ccc(Br)cc1CCNC(=O)[C@@H]1CCCN1C(=O)[C@@H](NC(=O)[C@H](C)N)C(C)C` [AVPX36] registered an inhibition constant (Ki) at XIAP-BIR3 [1] (setting [12]) of 3.3 µM.
Take `CCOc1ccccc1CCNC(=O)[C@@H]1CCCN1C(=O)[C@@H](NC(=O)[C@H](C)N)C(C)C` [AVPX40]: affinity on XIAP-BIR3 [1] (setting [12]) was put at a Ki of 0.32 µM.
For `CC(C)[C@H](NC(=O)[C@H](C)N)C(=O)N1CCC[C@H]1C(=O)NCC(c1ccccc1)c1ccccc1` [AVPX24], at XIAP-BIR3 [1] (setting [12]), the inhibitory constant (Ki) is 0.28 µM. On ML-IAP-BIR [3] (ratio of Ki), the “improvement in affinity for ML-IAP-BIR relative to AVPF” value amounted to 3 fold, the “improvement in affinity for ML-IAP-BIR relative to AVPI” value turned out to be 10 fold and the “specificity for ML-IAP-BIR relative to XIAP-BIR3” value is recorded as ~9 fold.
`CC(C)[C@H](NC(=O)[C@H](C)N)C(=O)N1CCC[C@H]1C(=O)N[C@H](CO)[C@H](O)c1ccccc1` [AVPX27] came in with a Ki on XIAP-BIR3 [1] (setting [12]) of 1.6 µM. This counts as single-digit micromolar.
As to `CC(CNC(=O)[C@@H]1CCCN1C(=O)[C@@H](NC(=O)[C@H](C)N)C(C)C)c1ccccc1` (stereo partly shown) [AVPX31], on XIAP-BIR3 [1] (setting [12]), the inhibition constant (Ki) is 0.69 µM.
Molecule `CC(C)[C@H](NC(=O)[C@H](C)N)C(=O)N1CCC[C@H]1C(=O)NCCc1cccc(C(F)(F)F)c1` [AVPX26] had a Ki on XIAP-BIR3 [1] (setting [12]) of 1.2 µM.
On the same count and under the same terms, the value for `CC(C)[C@H](NC(=O)[C@H](C)N)C(=O)N1CCC[C@H]1C(=O)NCCc1cccc(F)c1` [AVPX37] was 0.84 µM.
In the case of `CC(NC(=O)[C@@H]1CCCN1C(=O)[C@@H](NC(=O)[C@H](C)N)C(C)C)C(O)c1ccccc1` (single isomer, unassigned) [AVPX29], on ML-IAP-BIR [3], the “specificity for ML-IAP-BIR relative to XIAP-BIR3, in words” value is on record as “improved specificity”.
On to `CCOc1cccc(CCNC(=O)[C@@H]2CCCN2C(=O)[C@@H](NC(=O)[C@H](C)N)C(C)C)c1` [AVPX34], for which the inhibition constant (Ki) at XIAP-BIR3 [1] (setting [12]) was determined as 1.1 µM.

B1: AVPFAK(5-FAM)K (peptide)
peptide: AVPFAKK
modifications: 5-carboxyfluorescein (5-FAM) on Lys 6
notes: Fluorescence polarization probe; also called Hid-FAM; 5-carboxyfluorescein-conjugated Hid peptide
As for B1, the results for the Kd with ML-IAP-BIR [4] and with XIAP-BIR3 [5] were 0.038 µM and 0.11 µM, respectively.
ADPIAQKSE showed an inhibition constant Ki with XIAP-BIR2 [6] of 53.4 µM. This lies in the double-digit micromolar range.
On to AHPIAQKSE, for which the Ki was 2.4 µM with ML-IAP-BIR [7] and 38.1 µM in the test with XIAP-BIR2 [6].
With AVPYAQKSE, the affinity in the test with XIAP-BIR2 [6] corresponds to a Ki of 16.9 µM.
As for AYPIAQKSE, the inhibition constant (Ki) with ML-IAP-BIR [7] is 1.6 µM; in the test with XIAP-BIR2 [6], 26.7 µM.
In turn, ATPIAQKSE registered a Ki with XIAP-BIR2 [6] of 45.8 µM.
On the same count and under the same terms, the value for AVVIAQKSE was 38.6 µM.
Regarding AGPIAQKSE, affinity in the test with ML-IAP-BIR [7] was put at a Ki of 23.9 µM.
Turning to AWPIAQKSE, the values for the Ki with ML-IAP-BIR [7] and with XIAP-BIR2 [6] were 1.9 µM and 45.8 µM, respectively.
In turn, ALPIAQKSE displayed a Ki in the test with ML-IAP-BIR [7] of 1.7 µM.
On to AMPIAQKSE, for which, in the test with XIAP-BIR3 [8], the affinity, expressed as Ki, was 1.8 µM.
Consider AVLIAQKSE, for which the Ki was determined as 3.5 µM with ML-IAP-BIR [7] and 83.9 µM with XIAP-BIR2 [6].
Take AKPIAQKSE: the Ki with ML-IAP-BIR [7] came to 1.9 µM; with XIAP-BIR2 [6] it was 83.9 µM.
For the molecule ARPIAQKSE, the results for the inhibition constant (Ki) in the test with ML-IAP-BIR [7] and with XIAP-BIR2 [6] were 0.73 µM and 68.7 µM, respectively.
In the case of ANPIAQKSE, the Ki in the test with XIAP-BIR2 [6] was found to be 68.7 µM. That is a double-digit micromolar value.
In the test with XIAP-BIR2 [6], AFPIAQKSE yielded an inhibition constant (Ki) of 38.1 µM.
Take AVIIAQKSE: the Ki in the test with ML-IAP-BIR [7] came to 3.5 µM; with XIAP-BIR2 [6], 44.2 µM.
Turning to ASPIAQKSE, the Ki with XIAP-BIR2 [6] is 38.1 µM.
Regarding AEVVAVKSE, the inhibition constant Ki amounted to 4.4 µM in the test with ML-IAP-BIR [9] and 15 µM with XIAP-BIR2 [10].
For the molecule AVPFAVKSE, the inhibitory constant (Ki) in the test with ML-IAP-BIR [9] came out at 0.16 µM; with XIAP-BIR3 [11] it was 0.39 µM; with XIAP-BIR2 [10], 14.7 µM; in the test with ML-IAP-BIR [7], 0.16 µM; with XIAP-BIR3 [8], 0.39 µM; in the test with XIAP-BIR2 [6], 14.7 µM.

By Ki is commonly meant the equilibrium dissociation constant of an inhibitor or competing ligand from its target.
